{"sequences": {"note": "Chains of the proteins cited; added tags and fusions are not shown.", "UniProt Q9UKP6, whole entry": "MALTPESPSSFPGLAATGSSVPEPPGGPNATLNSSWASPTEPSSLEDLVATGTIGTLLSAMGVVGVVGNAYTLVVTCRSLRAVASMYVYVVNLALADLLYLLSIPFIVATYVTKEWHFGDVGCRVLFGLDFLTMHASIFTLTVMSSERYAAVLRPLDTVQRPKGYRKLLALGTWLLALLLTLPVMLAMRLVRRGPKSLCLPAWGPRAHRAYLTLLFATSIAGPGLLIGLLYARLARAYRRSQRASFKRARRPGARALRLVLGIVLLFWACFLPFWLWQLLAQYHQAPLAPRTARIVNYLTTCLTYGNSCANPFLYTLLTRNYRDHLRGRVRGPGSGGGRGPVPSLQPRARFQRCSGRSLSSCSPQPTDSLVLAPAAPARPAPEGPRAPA"}, "source": "patent US20030139442A1", "about": "“Vasoactive agents” (priority 2002, published 2003)", "target": "human GPR14-expressing CHO cells (Homo sapiens, UniProt Q9UKP6)", "assay": "Change in intracellular calcium concentration in human GPR14-expressing CHO cells (FLIPR), antagonist activity assay", "assay_type": "cell-based", "settings": "Fluo3, 10 μl of 10 nM urotensin II added", "procedure": "Change in Calcium Concentration in Human GPR14-Expressing CHO Cell Caused by Test Compound\nGPR14-expressing CHO cells were inoculated on a 96-well plate at 1×10^4 cell/well, cultured for 48 hours, and then washed with 0.1 ml of HBSS containing 20 mM HEPES(pH7.4), 1% FCS and 1% penicillin-streptomycin (hereinafter referred to as “wash buffer”). Next, 100 μl of another wash buffer containing 4 μM Fluo3, 0.04% pluronic acid and 2.5 mM probenicid (hereinafter referred to as “reaction buffer”) was added thereto for reaction at 37° C. for 1 hour. The reaction buffer was then removed and the plate was washed three times with 0.2ml of wash buffer. Then, 90 μl of wash buffer and 10 μl of a solution of test compound in dimethylsulfoxide diluted 10 times (by volume) in membrane diluting buffer were added for agonist activity assay, while, for antagonist activity assay, furthermore 10 μl of 10 nM urotensin II was additionally added to determine change in intracellular calcium concentration in FLIPR (Japan Molecular Device). Both of test compounds 1 and 2 inhibited urotensin II-induced increase in intracellular calcium concentration.", "data": [{"smiles": "Nc1c2c(nc3ccc(Br)cc13)N(Cc1ccccc1)CC2", "values": [{"measurement": "Effect on urotensin II-induced increase in intracellular calcium concentration", "result": "inhibited"}]}]}
